Assay results published in US6962920B2, “Pyrimidine derivatives and methods of making and using these derivatives” (Duquesne University of the Holy Ghost, priority 1992, dated 2005).
pIC50: −log10 of the molar value. Where two headings read alike, the source gives them in different places.

Chains of the proteins cited; added tags and fusions are not shown. Lines headed by an entry give the natural chain unless they say otherwise; changes in a name come on top.
UniProt P0A884: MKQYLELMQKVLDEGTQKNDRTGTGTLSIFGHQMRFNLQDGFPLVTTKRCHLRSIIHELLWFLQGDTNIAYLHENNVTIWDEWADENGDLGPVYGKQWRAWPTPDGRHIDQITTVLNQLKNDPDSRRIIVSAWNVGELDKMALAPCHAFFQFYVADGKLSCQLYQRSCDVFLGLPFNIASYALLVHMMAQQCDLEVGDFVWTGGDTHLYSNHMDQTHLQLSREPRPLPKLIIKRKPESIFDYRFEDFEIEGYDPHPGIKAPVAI

Columns and labels:
[1] = target: E-coli thymidylate synthase (ecTS) (Escherichia coli, UniProt P0A884); test: Inhibition of E. coli thymidylate synthase; assay type: biochemical; conditions: Table 13; read-out: TS IC50, E. Coli
RL DHFR = target: T1, RL DHFR (Rattus norvegicus, UniProt Q920D2); test: Inhibition of DHFR from rat liver; assay type: biochemical
T1 construct: Toxoplasmosis gondii (Tg) and rat liver (RL); from tissue; host or cells: rat liver
T1 sequence (Q920D2 1-187): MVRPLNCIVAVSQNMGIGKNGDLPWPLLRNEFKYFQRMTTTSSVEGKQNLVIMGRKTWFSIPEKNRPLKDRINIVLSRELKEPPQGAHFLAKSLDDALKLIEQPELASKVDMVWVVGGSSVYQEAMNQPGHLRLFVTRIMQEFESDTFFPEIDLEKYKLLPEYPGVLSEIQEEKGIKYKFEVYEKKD

Pc DHFR = target: T2, Pc DHFR (Pneumocystis carinii, UniProt P16184); assay type: biochemical
T2 sequence (P16184 1-206): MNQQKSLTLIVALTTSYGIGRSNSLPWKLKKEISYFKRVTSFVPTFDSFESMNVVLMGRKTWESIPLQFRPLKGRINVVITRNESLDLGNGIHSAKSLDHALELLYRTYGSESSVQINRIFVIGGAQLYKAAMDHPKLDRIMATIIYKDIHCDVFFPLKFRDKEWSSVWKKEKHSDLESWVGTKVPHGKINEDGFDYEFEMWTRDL

Tg DHFR = target: T3, Tg DHFR (Toxoplasma gondii, UniProt Q07422)
T3 sequence (Q07422 1-610): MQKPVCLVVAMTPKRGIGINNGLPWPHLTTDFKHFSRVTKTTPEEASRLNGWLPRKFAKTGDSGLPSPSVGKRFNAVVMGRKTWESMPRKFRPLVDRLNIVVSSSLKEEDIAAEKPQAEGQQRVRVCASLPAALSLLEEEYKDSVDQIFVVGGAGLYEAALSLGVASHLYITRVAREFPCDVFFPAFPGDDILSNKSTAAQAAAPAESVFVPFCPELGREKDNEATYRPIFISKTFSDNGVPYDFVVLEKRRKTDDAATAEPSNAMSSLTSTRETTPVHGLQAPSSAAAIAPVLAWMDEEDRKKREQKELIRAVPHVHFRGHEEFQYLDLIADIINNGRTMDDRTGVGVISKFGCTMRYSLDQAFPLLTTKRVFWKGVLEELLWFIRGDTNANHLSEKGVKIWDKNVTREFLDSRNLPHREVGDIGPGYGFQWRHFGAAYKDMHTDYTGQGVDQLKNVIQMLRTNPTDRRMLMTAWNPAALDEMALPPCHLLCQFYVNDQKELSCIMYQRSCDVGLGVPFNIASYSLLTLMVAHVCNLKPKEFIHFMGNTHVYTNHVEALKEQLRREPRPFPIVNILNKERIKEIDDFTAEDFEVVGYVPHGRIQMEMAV

[2] = Table 16, read-out: RL DHFR IC50
[3] = Table 25, read-out: Inhibitor Concentrations (IC50) rlDHFR

Question: With `Cc1nc2ccc(CN(C)c3ccc(C(=O)N[C@@H](CCC(=O)O)C(=O)O)s3)cc2c(=O)[nH]1` [ZD1694, reference compound] as the compound, how does the pIC50 [1] read?
Answer: 5.28

Question: With `Nc1nc(N)c2c(CNc3ccc(Oc4ccccc4)cc3)coc2n1` [Compound 166, 2,4-Diamino-5-[(4′-phenoxyanilino)methyl]furo[2,3-d]pyrimidine] as the compound, how does the pIC50 (RL DHFR; [2]) read?
Answer: 4.79

Question: What about the pIC50 (RL DHFR; [3]) of the same compound?
Answer: 4.79

Question: And the pIC50 (Pc DHFR; Table 16, read-out: Pc DHFR IC50)?
Answer: 5.09

Question: What about the pIC50 (Pc DHFR; Table 25, read-out: Inhibitor Concentrations (IC50) pcDHFR) of the same compound?
Answer: 5.09

Question: With `COc1ccc(OC)c(NCc2cnc3[nH]c(N)nc(N)c2-3)c1` [Compound 4, 2,4-diamino-5-[(2′,5′-dimethoxyanilino)methyl]pyrrolo[2,3-d]pyrimidine] as the compound, how does the pIC50 (Pc DHFR; Table 7, read-out: Pc DHFR IC50) read?
Answer: 4.34

Question: How did the pIC50 (RL DHFR; [2]) turn out when `CN(Cc1coc2nc(N)nc(N)c12)c1cc(Cl)c(Cl)c(Cl)c1` [Compound 172, 2,4-Diamino-5-[(N-methyl-3′,4′,5′-trichloroanilino)methyl]furo[2,3-d]-pyrimidine] was run?
Answer: 4.46

Question: And the pIC50 (RL DHFR; [3])?
Answer: 4.46

Question: What about the pIC50 (Tg DHFR; read-out: Inhibitor Concentrations (IC50) tgDHFR, Table 25) of the same compound?
Answer: 4.67

Question: What about the pIC50 (Tg DHFR; read-out: Tg DHFR IC50, Table 16) of the same compound?
Answer: 4.67
